Data from paper PMC11150675, “Simultaneous determination of multiple components in rat plasma by UPLC-MS/MS for pharmacokinetic studies after oral administration of Pogostemon cablin extract” (Frontiers in Pharmacology, 2024).

Assay: PK study in rats after single oral administration of Pogostemon cablin (PC) extract, plasma analysed by UPLC-MS/MS
Conditions: rat plasma, PC extract 4.0 g/kg single oral dose, n = 6

AUC (0-∞): 0.1127 ± 0.0384 µg·h/mL | Cmax: 0.0174 ± 0.0045 µg/mL | T1/2z: 4.8 ± 2.6 h
Substance: β-rhamnocitrin
